In PubChem BioAssay AID798 (PCMD, 2007):
This is a selection; strong and weak results do not stand in their true shares. The source made the active and inactive calls.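 Rule for the calls: active = inhibition of at least 40%; inactive = inhibition below 40%.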

The chains behind the UniProt entries cited, without tags or fusion partners.
UniProt P03951, whole entry, looked up: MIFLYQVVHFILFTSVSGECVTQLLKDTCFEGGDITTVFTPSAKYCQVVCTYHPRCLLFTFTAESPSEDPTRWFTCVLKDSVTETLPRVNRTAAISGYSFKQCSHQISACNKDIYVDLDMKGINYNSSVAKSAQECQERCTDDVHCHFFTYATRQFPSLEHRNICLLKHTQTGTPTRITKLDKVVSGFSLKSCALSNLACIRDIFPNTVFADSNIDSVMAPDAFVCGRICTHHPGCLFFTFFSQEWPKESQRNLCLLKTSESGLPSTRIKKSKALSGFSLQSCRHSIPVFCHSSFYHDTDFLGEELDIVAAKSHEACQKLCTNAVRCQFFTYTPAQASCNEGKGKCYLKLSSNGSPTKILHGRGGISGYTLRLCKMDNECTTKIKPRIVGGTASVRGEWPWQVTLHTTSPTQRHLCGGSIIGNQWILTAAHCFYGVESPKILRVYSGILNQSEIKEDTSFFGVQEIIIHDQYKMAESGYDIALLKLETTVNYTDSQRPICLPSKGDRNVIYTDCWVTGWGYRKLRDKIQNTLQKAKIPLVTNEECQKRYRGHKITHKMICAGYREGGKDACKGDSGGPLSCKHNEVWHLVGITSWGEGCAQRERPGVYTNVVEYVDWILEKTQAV

target: Coagulation factor XI (Homo sapiens) (UniProt P03951); experiment: factor XIa enzyme inhibition, large library – biochemical, 1536-well, primary screen (AID 798); details: purified FXIa, Boc-Glu-Ala-Arg-AMC fluorogenic substrate; at 5 µM; hits give high values;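 note: fluorescence of freed AMC excited at 355 nm; 0% = enzyme without compound and 100% = no enzyme blank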

Structure (SMILES)	inhibition
O=c1c2cc([N+](=O)[O-])ccc2[nH]c2c([N+](=O)[O-])cc([N+](=O)[O-])cc12	inactive: 1.6%
CN(C)C(=O)Oc1noc2ccccc12	inactive: 4.13%
CS(=O)(=O)c1cc([N+](=O)[O-])c2no[n+]([O-])c2c1	inactive: -1.27%
CCOP1(=S)c2c(C)nn(CCC#N)c2N=C(c2ccccc2F)N1C (configuration not stated)	inactive: 7.38%
O=P(Nc1nccs1)(Oc1ccccc1)Oc1ccccc1	inactive: -1.52%
O=P(Nc1nccs1)(c1ccccc1)c1nc2ccccc2s1 (configuration not stated)	inactive: 4.67%
O=C(O)COc1ccc([As](=O)(O)O)cc1[N+](=O)[O-]	inactive: 3.93%
Nc1ccccc1[As](=O)(O)c1ccccc1	inactive: -4.87%
NC(=O)Nc1ccc([As](=O)(O)O)cc1	inactive: 1.6%
O=[N+]([O-])c1ccc2c(c1)nnn2O	inactive: 0.64%
CN(C(=O)Cc1ccccc1)[C@@H]1CC[C@]2(CCCO2)C[C@H]1N1CCCC1	inactive: 3.37%
CCOP1(=S)c2c(C)nn(CCC#N)c2N=C(c2ccc(F)cc2)N1C (configuration not stated)	inactive: -0.95%
O=[As](O)(O)c1cccnc1	inactive: -9.52%
COc1cc(C(=O)NCC2(N3CCOCC3)CCCCC2)cc(Cl)c1OC(C)C	inactive: 1.92%
O=C(OC1CN2CCC1CC2)c1ccc(Cl)cc1 (configuration not stated)	inactive: 3.74%
Cc1cccc(OCC(=O)OC2CN3CCC2CC3)c1 (configuration not stated)	inactive: 0.25%
O=[As](O)(c1cccc(O)c1)c1cccc(O)c1	inactive: -2.69%
CCCOP(=S)(Nc1nc(N)cc(=O)[nH]1)OCCC	inactive: 0.23%
Cc1ccc(NCCc2c([N+](=O)[O-])cc([N+](=O)[O-])cc2[N+](=O)[O-])cc1	inactive: 3.85%
Nc1cccc2c([As](=O)(O)O)cccc12	inactive: 4.27%
COc1cc(C2NCCC3(OCCO3)C2(C)C)cc(OC)c1OC (configuration not stated)	inactive: 3.26%

Structure (SMILES)	inhibition
CCOP(=O)(Nc1cccc2ccccc12)OCC	inactive: -6.82%
CCOP(=O)(Nc1ccc(C)cn1)OCC	inactive: -0.38%
O=P1(Nc2ccccn2)COc2ccccc2OC1	inactive: -7.4%
Clc1n[nH]nc1-c1nn[nH][15n]1	inactive: 7.68%
CC(C)(C)C(=O)NC(Sc1ncccn1)C(Cl)(Cl)Cl (configuration not stated)	inactive: 3.27%
O=[As](O)(c1ccccc1Br)c1ccccc1Br	inactive: -3.77%
CC(C)/C=N\N=C(\N)N[N+](=O)[O-]	inactive: 4.63%
Cc1nn(-c2ccccc2)c2c1P(=O)(N1CCOCC1)N(C)C(c1ccccc1)=N2 (configuration not stated)	inactive: -1.23%
CC1CCC(C(C)C)C(OP(=O)(Nc2ccccn2)c2ccccc2)C1 (configuration not stated)	inactive: -1.51%
O=C(/C=C/c1ccccc1)OC1CN2CCC1CC2 (configuration not stated)	inactive: -3.89%
CN(C)C1(CNC(=O)c2ccc(S(C)(=O)=O)cc2)CCCCC1	inactive: -2.18%
O=P1(Nc2ncccn2)COc2ccccc2OC1	inactive: -4.76%
Cc1ccc(OCC(=O)OC2CN3CCC2CC3)cc1 (configuration not stated)	inactive: -1.94%
O=[As](O)(c1cccs1)c1cccs1	inactive: -0.27%
O=P1(Nc2ccc(Br)cn2)COc2ccccc2OC1	inactive: 1.17%
Nc1cccc([As](=O)(O)c2ccccc2)c1	inactive: -4.37%
CCOC(=O)Nc1ccc([As](=O)(O)O)c(O)c1	inactive: 6.7%
Cc1cc(SC(NC(=O)c2ccccc2)C(Cl)(Cl)Cl)nc(C(C)C)n1 (configuration not stated)	inactive: 10.1%
CCOC(=O)Nc1cccc([As](=O)(O)O)c1	inactive: -1.61%
O=[N+]([O-])c1ccc(Nc2ccc(Oc3ccc([N+](=O)[O-])cc3[N+](=O)[O-])cc2)c([N+](=O)[O-])c1	inactive: 6.85%
Cc1cc(SC(NC=O)C(Cl)(Cl)Cl)ncn1 (configuration not stated)	inactive: 2.66%

Structure (SMILES)	inhibition
O=P(Nc1ccccn1)(c1cccc2ccccc12)c1cccc2ccccc12	inactive: -5.83%
COP1(=S)c2c(C)nn(CCC#N)c2N=C(c2ccc(F)cc2)N1C (configuration not stated)	inactive: -0.89%
O=C(COc1ccccc1)OC1CN2CCC1CC2 (configuration not stated)	inactive: -1.29%
CCOC(=O)c1ccc(NC(=O)C(C)(CCl)SC)cc1 (configuration not stated)	inactive: 1.21%
CCC(C)N(CC(C)C)C(=S)SC(NC(C)=O)C(Cl)(Cl)Cl (configuration not stated)	inactive: 12.6%
O=C(OC1CN2CCC1CC2)C12CC3CC(CC(C3)C1)C2 (configuration not stated)	inactive: -8.42%
Cc1cc(=O)[nH]c(N[N+](=O)[O-])n1	inactive: -9.86%
Cc1c2c(nc3ccccc13)SC(C(Cl)Cl)C2 (configuration not stated)	inactive: 6.17%
COc1ccc2nc(NP(=O)(c3ccccc3)c3ccccc3)sc2c1	inactive: 1.15%
COc1cc(I)ccc1[As](=O)(O)O	inactive: -5.68%
COc1ccc(N/C(=N/P(=O)(N2CCOCC2)N2CCOCC2)N2CCOCC2)cc1	inactive: 3.19%
O=[As](O)(c1ccc(O)cc1)c1ccccc1O	inactive: -5.5%
C[As](=O)(O)c1cccc(C(=O)O)c1	inactive: 4.65%
Cc1ccc2nc3c(c(C)c2c1)CC(C(Cl)Cl)S3 (configuration not stated)	inactive: 1.71%
Cc1ccc(OP(=O)(Nc2ccc([N+](=O)[O-])cn2)Oc2ccc(C)cc2)cc1	inactive: -22.1%
CC(C)c1ccc(OP(=O)(Nc2ccccn2)Oc2ccccc2F)cc1 (configuration not stated)	inactive: -0.15%
ClCCSc1nnc(-c2cccnc2)o1	inactive: 7.94%
CC(C)NC(=O)NP(=O)(Oc1ccccc1)Oc1ccccc1	inactive: -2.23%
CCN(CC)C(=S)SC(NC=O)C(Cl)(Cl)Cl (configuration not stated)	inactive: -1.49%
O=[N+]([O-])c1cc([N+](=O)[O-])c(-c2ccn[nH]2)s1	inactive: 4.22%
